# Values quoted from earlier work, collected in article PMC3981547.
# Chains of the proteins cited; added tags and fusions are not shown. Residues count along the entry.
# UniProt P01589, 22-240, chain 1 of 3: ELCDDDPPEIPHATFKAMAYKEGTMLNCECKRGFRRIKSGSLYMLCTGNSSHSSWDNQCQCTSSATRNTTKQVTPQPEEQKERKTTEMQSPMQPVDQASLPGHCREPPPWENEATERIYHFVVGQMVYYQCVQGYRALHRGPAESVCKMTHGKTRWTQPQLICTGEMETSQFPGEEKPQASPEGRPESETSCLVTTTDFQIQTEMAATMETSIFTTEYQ
# UniProt P60568, 21-153: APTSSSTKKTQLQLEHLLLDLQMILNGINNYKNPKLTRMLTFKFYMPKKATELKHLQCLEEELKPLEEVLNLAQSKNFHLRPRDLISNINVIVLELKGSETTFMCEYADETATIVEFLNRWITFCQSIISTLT
# Key:
# [1] = target: IL-2Rα/IL-2Rβ/γc (Homo sapiens) (UniProt P01589)
# [2] = target: IL-2Rα/IL-2Rβ (Homo sapiens) (UniProt P01589)
substance,measurement,setting,value
IL-2 (from UniProt P60568),Kd,[1],0.01 nM
same,Kd,[2],0.03 nM
